{"sequences": {"note": "By UniProt entry, the sequences of proteins in these tests, tags left out. Residues count along the entry.", "UniProt Q12306, 1-98 limits assumed": "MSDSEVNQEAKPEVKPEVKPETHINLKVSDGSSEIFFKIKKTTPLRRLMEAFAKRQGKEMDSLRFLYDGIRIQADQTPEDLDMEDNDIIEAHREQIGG"}, "source": "patent US10220090B2", "about": "“BCMA Antigen binding proteins” (Amgen Inc., priority 2012, dated 2019)", "molecules": {"B1": {"name": "Ab-5: parental fully human anti-huBCMA mAb 2A1, Vh SEQ ID NO:214, Vl 248; heavy chain SEQ ID NO:287, light chain 288 (antibody)", "heavy": "EVQLVESGGGLVKPGRSLRLSCTASGFTFGDYALSWFRQAPGKGLEWVGVSRSKAYGGTTDYAASVKGRFTISRDDSKSFAYLQMNSLKTEDTAVYYCCSSGYSSGWTPFDYWGQGTLVTVSSASTKGPSVFPLAPSSKSTSGGTAALGCLVKDYFPEPVTVSWNSGALTSGVHTFPAVLQSSGLYSLSSVVTVPSSSLGTQTYICNVNHKPSNTKVDKKV[omitted - human IgG1 Fc]", "light": "QSVLTQPPSASGTPGQRVTISCSGSSSNIGSNTVNWYQQLPGTAPKLLIFNYHQRPSGVPDRFSGSKSGSSASLAISGLQSEDEADYYCAAWDDSLNGWVFGGGTELTVLGQPKAAPSVTLFPPSSEELQANKATLVCLISDFYPGAVTVAWKADSSPVKAGVETTTPSKQSNNKYAASSYLSLTPEQWKSHRSYSCQVTHEGSTVEKTVAPTECS"}}, "key": {"[1]": {"biological_target": "T1, Sumo (cleaved from SumoBCMA) (Saccharomyces cerevisiae, UniProt Q12306)", "T1 construct": "6xHis (N)", "test": "Size exclusion chromatography control with Sumo", "format": "binding", "conditions": "SEC control", "protocol": "(§1) A Superdex 200™ 10/30 cm SEC column (GE Healthcare Life Sciences) was used according to the manufacturer's recommended condision and run in phosphate buffered saline (PBS). Incubations of antibody with excess levels of sumoBCMA were performed at room temperature for at least 30 minutes."}, "[2]": {"biological_target": "[6xHistidine-SUMO]-huBCMA (SEQ ID NO:350) and its carboxy terminal clipped forms (Homo sapiens, UniProt Q02223)", "test": "Size exclusion chromatography and LC/MS of antibody complexes with Sumo-huBCMA and clipped forms", "format": "binding", "conditions": "SEC and LC/MS", "text": "To determine which forms of 6×His-SUMO-huBCMA were bound to the anti-huBCMA antibodies, the SEC fractions were isolated and analyzed. Carboxy-terminus fragments of the extracellular domain of human BCMA were generated as clipped forms from the rhuBCMA fusion protein (6×His::Sumo::huBCMA(aa 5-51)::GGS::G3::Avi) of SEQ ID NO:350, as shown in FIG. 45.\nA Superdex 200™ 10/30 cm SEC column (GE Healthcare Life Sciences) was used according to the manufacturer's recommendations and run in phosphate buffered saline (PBS). Incubations of antibody with excess levels of sumoBCMA were performed at room temperature for at least 30 minutes.\nas §1\n5 ug of total proteins were reduced in 50 mM Tris/4 M guanidine/9 mM DTT, pH 8.0 at 55° C. for 15 min, and analyzed in Agilent LCTOF system using a Vydac C8 column, 2.1 mm ID×150 mm, […] particle size. […] TOF MS conditions included capillary voltage of 4000 V, drying gas flow at 10 L/min, dry gas temperature at 300° C., nebulizer gas flow at 40 L/min, and fragmentor voltage of 300 V. MS data was analyzed in Agilent MassHunter™ Qualitative Analysis program."}, "[3]": {"biological_target": "T2, BCMA on H929 cells (Homo sapiens, UniProt Q02223, N81S)", "T2 construct": "host or cells: H929", "T2 sequence (Q02223 1-184 N81S)": "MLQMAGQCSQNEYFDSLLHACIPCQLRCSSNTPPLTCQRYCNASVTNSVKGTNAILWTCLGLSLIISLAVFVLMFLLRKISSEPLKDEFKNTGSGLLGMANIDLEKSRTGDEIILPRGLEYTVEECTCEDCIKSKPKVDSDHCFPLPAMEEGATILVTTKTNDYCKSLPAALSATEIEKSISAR", "test": "FACS binding to native BCMA on H929 myeloma cells", "protocol": "(§2) Approximately 10 to 40×10^6 of H929 myeloma cells were resuspended in a staining solution (2% goat serum, 1% rabbit serum, 0.02% azide in PBS) and aliquoted into round-bottom, 96-well plate (Corning Incorp., Acton, Mass.) as per the experiment design. The cells were incubated at 4 degrees celsius for 30 minutes to block non-specific sites. The antibodies were titrated into the staining solution. The cells were rinsed in a rinse solution (PBS+0.02% azide) by resuspending the cells in 200 ul/well. The cells were centrifuged at 1500 rpm at 4 degrees celsius for 7 minutes. The rinse solution was removed and the rinse step was repeated. […] The cells/antibodies were rinsed as described above to remove excess/unbound antibody. After the last rinse, the cells were resuspended in 200 ul of rinse solution with a drop of staining solution added to keep the cells from aggregating.\nThe antibodies were tested for binding to BCMA endogenously-expressed on a variety of cells, including the H929 cell line, which were developed from B-lymphocytes from a myeloma/plasmacytoma patient (ATCC, Manassa, Va.) using standard FACs techniques. […] The supernatants were removed and the cell pellets were resuspended in 0.2 mL/tube 4% paraformaldehyde in PBS and analyzed by flow cytometry"}, "[4]": {"biological_target": "T3, BCMA on H929, RPMI 8226, OPM2, MM1S, U266, MM1R, RAMOS and EW36 cells (Homo sapiens, UniProt Q02223, N81S)", "T3 construct": "endogenous in cells; host or cells: H929, RPMI 8226, OPM2, MM1S, U266, MM1R, RAMOS, EW36", "T3 sequence (Q02223 1-184 N81S)": "T2 sequence (Q02223 1-184 N81S)", "test": "FACS binding of Dy649-conjugated antibody to myeloma and B-cell lines", "protocol": "as §2, with “of” for “of H929 myeloma”"}}, "data": [{"molecule": "B1", "values": [{"measurement": "binding to Sumo", "setting": "[1]", "result": "did not bind to Sumo"}, {"measurement": "binding to full-length and truncated fragments of human BCMA", "setting": "[2]", "result": "bound full-length and truncated forms of BCMA"}, {"measurement": "binding to human BCMA on the surface of H929 myeloma cell line", "setting": "[3]", "result": "bound to human BCMA"}, {"measurement": "binding to myeloma cell lines and B-cell lines", "setting": "[4]", "result": "bound to all myeloma cell lines and B-cell lines"}, {"measurement": "binding to the RAMOS B-cell line", "setting": "[4]; RAMOS", "result": "comparatively low"}]}]}
